# In PubChem BioAssay AID581 (PCMD, 2007):
# Protein sequences, listed by entry. Tags and fused reporters are not part of them. Residues count along the entry.
# UniProt P08311, 21-244 limits assumed: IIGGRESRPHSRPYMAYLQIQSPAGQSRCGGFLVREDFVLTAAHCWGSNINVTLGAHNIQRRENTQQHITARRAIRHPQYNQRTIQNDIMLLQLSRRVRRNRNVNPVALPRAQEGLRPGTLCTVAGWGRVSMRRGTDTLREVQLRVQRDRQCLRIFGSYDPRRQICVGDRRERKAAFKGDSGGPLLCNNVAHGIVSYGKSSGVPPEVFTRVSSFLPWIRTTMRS
# This is a selection; strong and weak results do not stand in their true shares. Calls of active or inactive are those of the source.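 Rule for the calls: active = inhibition above 20% in each of the two mixture wells holding the compound; inactive = inhibition of 20% or less in either well.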
# Molecular target: Cathepsin G (Homo sapiens) (UniProt P08311)
# Experiment: human cathepsin G inhibitors, primary screen, biochemical, pooled compound mixtures, AMC fluorescence (AID 581);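 note: 0% = enzyme control without mixture and 100% = blank lacking enzyme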
# Settings: purified enzyme, AMC-tetrapeptide fluorescence, active compounds read high, screened at 5 µM (by protocol)
row,SMILES,inhibition
1,CCC(CO)(C(=O)OC1CN2CCC1CC2)c1ccccc1 (stereo unspecified),inactive: -3.1%
2,CCOc1ncccc1C(=O)NCC1(N2CCOCC2)CCCCC1,inactive: 11.6%
3,Fc1ccccc1NC1CCN(Cc2ccccc2)CC1,inactive: 7.55%
4,N/C(=N\O)c1c(N)no[n+]1[O-],inactive: 0.665%
5,N#CC1(Nc2ccccc2)CCN(CCc2ccccc2)CC1,inactive: 5.98%
6,O=C(OC1CN2CCC1CC2)C1c2ccccc2Oc2ccccc21 (stereo unspecified),inactive: 8.44%
